The text below walks through data of publication PMC6553790 (PLoS Pathogens, 2019).

This assay has as its system P. falciparum Cam3.II lines. As to the kind of experiment: Isobologram analyses (fixed-ratio drug combinations). Format: cell-based, Plasmodium falciparum. The note with it: combined with WLL; Trophozoites, 3 hr exposure; Cam3.II K13WT. The procedure:
Assays were performed with fixed ratios of drug combinations (1:0, 4:1, 2:1, 1:1, 1:2, 1:4, and 0:1), tested in duplicate. Combinations were prepared from 16×IC50 drug stocks and tested across a range of two-fold dilutions. Assays were conducted with asynchronous cultures exposed for 72 hr or with tightly synchronized rings or trophozoites (tested at 0–3 hr or 24–27 hr post-invasion, respectively) exposed for 3 hr. Post-pulse drug washouts were conducted as described above for in vitro determination of IC50 levels. IC50 values were derived for each compound tested alone, and fractional IC50 (FIC50) values were determined for each compound tested in combination (FIC50 = […]) and plotted for each drug combination. For each combination, the mean of the sums of FIC50 values at each combination (mean ΣFIC50) was also calculated and the results illustrated using heat maps.

Turning to `CN(C)c1ccc2nc3ccc(=[N+](C)C)cc-3sc2c1` [MB, methylene blue], the “Mean of the sums of FIC50 (mean ΣFIC50)” value was found to be 0.98.
